This passage reports inhibition results from PubChem BioAssay AID950 (NMMLSC, 2007).

Sequences of proteins named here, by UniProt entry; tags and fusion partners are left off.
UniProt P10415, whole entry: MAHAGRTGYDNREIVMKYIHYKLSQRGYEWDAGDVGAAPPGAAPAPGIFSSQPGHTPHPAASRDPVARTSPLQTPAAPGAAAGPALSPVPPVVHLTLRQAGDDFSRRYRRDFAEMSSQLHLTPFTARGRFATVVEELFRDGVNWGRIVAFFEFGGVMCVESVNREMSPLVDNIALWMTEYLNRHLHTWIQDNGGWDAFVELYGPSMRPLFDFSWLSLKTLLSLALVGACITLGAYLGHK

The list shows a part of the results, in another mix than the full data. Active and inactive are the calls of the source. Cut-off read from the data, not from the text of the source: active = inhibition above about 40%; inconclusive = no clear call, values can overlap the other calls; inactive = below that.

For orientation: inhibition means the drop in the measured response relative to a control, in per cent.

The test deals with Apoptosis regulator Bcl-2 (Homo sapiens) (UniProt P10415). The experiment in a line: Bcl-2 and Bim peptide interaction disruptors – biochemical, multiplexed, human Bcl-2 family, primary screen (AID 950).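 Note: 0% = no compound wells with probe peptide and 100% = reference peptide inhibitor.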 To be noted: Bead-based flow cytometry, Bim peptide-Bcl-2 binding; at 10 µM; active compounds read high. For orientation: In flow cytometry, cells or beads pass a laser one at a time.
Consider `COc1ccc(C(=O)NCC2(N3CCCCC3)CCCCC2)c(OC)c1OC`, for which the inhibition is inactive: -4%.
In the case of `CCOC(=O)N1CCC(Nc2ccc(OC)cc2)CC1`, the inhibition was inactive: -1%.
Take `O=C(OC1CN2CCC1CC2)C1c2ccccc2Oc2ccccc21` (stereo not given): the inhibition is inactive: -3%.
For `O=C(NCC1(N2CCOCC2)CCCCC1)c1cc2ccccc2o1`, the inhibition was inactive: 11%.
As to `COc1ccc(NC2CCN(CCc3ccccc3)CC2)c(OC)c1`, the inhibition was inactive: -8%.
Regarding `O=C(NCC1(N2CCCCC2)CCCCC1)c1cccc([N+](=O)[O-])c1`, the inhibition is inactive: 0%.
Take `N#CC1(Nc2ccccc2)CCN(CCc2ccccc2)CC1`: the inhibition was inactive: 0%.
To `CN1CCN(CCOC(=O)C(O)(c2ccccc2)c2ccccc2)CC1` belongs inactive: -5%; to `COc1ccc(NC2CCN(C(=O)OC(C)(C)C)CC2)cc1`, inactive: 0%; to `O=C(NCC1(N2CCOCC2)CCCCC1)c1cc(=O)[nH]c2ccccc12`, inactive: -5%.
For the molecule `COc1ccc(CN(CCCl)CCCl)cc1Cl`, the inhibition is inactive: -1%.
Regarding `CN(C)c1cccc(C(=O)NCC2(N3CCCCC3)CCCCC2)c1`, the inhibition is inactive: 2%.
To `CC(C)c1ccc(NC2CCN(C(=O)OC(C)(C)C)CC2)cc1` belongs inactive: 0%; to `COc1ccc(C(=O)NCC2(N3CCOCC3)CCCCC2)cc1OC`, inactive: -3%.
As to `O=C(OC1CN2CCC1CC2)C1c2ccccc2C=Cc2ccccc21` (stereo not given), the inhibition is inactive: -4%.
On to `N/C(=N\O)c1c(N)no[n+]1[O-]`, for which the inhibition is inactive: -3%.
To `N#Cc1ccc(C(=O)NCC2(N3CCCCC3)CCCCC2)cc1` belongs inactive: -2%; to `c1ccc(CN2CCC(Nc3ccccc3)CC2)cc1`, inactive: -3%.
To `Fc1ccccc1NC1CCN(Cc2ccccc2)CC1` belongs inactive: 1%; to `CN(C)c1ccc(C(=O)NCC2(N3CCCCC3)CCCCC2)cc1`, inactive: 0%.
Take `CCN1CCC(Nc2cccc(F)c2)CC1`: the inhibition is inactive: -2%.
Turning to `CC(C)(C)OC(=O)N1CCC(Nc2ccccc2)CC1`, the inhibition was inactive: -2%.
As for `CCOc1ncccc1C(=O)NCC1(N2CCOCC2)CCCCC1`, the inhibition was inactive: 1%.
In the case of `CCC(CO)(C(=O)OC1CN2CCC1CC2)c1ccccc1` (stereo not given), the inhibition is inactive: -2%.
Then `COc1cc(OC)cc(C(=O)NCC2(N3CCOCC3)CCCCC2)c1`, with inactive: -2%.
